Test results taken from ChEMBL document CHEMBL1240346, “AC220 is a uniquely potent and selective inhibitor of FLT3 for the treatment of acute myeloid leukemia (AML)” (Blood, 2009).

The chains behind the UniProt entries cited, without tags or fusion partners.
UniProt P42336, whole entry E542K: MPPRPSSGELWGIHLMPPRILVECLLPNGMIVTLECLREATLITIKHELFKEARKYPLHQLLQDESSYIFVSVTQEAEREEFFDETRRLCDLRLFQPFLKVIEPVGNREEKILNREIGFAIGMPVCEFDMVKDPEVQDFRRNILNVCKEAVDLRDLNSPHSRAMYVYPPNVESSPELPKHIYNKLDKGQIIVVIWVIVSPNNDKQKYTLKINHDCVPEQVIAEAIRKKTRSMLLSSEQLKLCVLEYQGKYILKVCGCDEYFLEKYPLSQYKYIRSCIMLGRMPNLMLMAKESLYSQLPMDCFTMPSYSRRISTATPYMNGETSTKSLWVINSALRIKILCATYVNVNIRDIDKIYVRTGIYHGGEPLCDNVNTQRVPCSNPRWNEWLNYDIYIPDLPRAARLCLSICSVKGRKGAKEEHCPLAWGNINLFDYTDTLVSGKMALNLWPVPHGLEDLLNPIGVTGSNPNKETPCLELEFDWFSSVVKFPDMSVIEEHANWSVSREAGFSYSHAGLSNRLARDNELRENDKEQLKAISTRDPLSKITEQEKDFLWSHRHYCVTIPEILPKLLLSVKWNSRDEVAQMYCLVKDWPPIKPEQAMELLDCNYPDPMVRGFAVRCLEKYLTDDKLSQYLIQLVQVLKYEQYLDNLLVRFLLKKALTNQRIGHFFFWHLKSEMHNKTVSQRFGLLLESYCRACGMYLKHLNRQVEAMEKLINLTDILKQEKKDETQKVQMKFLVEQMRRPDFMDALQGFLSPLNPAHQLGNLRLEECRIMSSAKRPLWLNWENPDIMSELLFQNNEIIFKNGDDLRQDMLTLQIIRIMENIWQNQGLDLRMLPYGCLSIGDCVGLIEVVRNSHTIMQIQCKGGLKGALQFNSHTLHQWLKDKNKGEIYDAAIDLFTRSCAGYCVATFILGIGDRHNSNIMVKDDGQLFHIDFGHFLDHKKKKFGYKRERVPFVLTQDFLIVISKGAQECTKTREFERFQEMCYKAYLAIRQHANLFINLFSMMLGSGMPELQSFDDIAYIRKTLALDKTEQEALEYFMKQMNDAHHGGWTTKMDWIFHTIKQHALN
UniProt P42336, whole entry E545A: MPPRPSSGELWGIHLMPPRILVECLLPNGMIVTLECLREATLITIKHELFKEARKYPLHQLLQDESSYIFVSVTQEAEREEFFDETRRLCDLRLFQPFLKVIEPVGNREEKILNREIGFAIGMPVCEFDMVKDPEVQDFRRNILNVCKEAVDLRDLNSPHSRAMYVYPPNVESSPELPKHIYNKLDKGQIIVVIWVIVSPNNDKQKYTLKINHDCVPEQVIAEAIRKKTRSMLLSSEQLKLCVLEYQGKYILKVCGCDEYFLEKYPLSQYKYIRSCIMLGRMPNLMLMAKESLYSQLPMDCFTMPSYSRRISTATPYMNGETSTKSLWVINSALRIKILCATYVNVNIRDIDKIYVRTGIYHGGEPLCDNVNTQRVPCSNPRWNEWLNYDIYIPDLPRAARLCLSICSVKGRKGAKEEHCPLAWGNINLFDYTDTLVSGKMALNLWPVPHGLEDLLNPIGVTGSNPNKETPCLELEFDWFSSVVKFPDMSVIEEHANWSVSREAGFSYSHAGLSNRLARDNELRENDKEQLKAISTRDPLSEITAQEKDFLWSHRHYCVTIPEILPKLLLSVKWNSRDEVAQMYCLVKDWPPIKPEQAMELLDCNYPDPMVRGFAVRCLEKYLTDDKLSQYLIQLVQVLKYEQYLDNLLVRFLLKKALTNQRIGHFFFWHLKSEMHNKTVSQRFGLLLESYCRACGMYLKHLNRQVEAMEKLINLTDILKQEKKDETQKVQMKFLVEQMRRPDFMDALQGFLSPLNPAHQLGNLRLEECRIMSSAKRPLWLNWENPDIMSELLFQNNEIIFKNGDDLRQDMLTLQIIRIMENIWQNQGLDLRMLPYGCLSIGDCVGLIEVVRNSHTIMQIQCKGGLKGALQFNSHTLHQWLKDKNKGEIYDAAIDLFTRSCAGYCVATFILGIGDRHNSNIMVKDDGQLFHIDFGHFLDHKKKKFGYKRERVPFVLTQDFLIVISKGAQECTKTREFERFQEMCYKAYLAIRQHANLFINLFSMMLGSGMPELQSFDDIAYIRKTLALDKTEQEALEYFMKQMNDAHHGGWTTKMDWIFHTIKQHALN
UniProt P42336, whole entry E545K: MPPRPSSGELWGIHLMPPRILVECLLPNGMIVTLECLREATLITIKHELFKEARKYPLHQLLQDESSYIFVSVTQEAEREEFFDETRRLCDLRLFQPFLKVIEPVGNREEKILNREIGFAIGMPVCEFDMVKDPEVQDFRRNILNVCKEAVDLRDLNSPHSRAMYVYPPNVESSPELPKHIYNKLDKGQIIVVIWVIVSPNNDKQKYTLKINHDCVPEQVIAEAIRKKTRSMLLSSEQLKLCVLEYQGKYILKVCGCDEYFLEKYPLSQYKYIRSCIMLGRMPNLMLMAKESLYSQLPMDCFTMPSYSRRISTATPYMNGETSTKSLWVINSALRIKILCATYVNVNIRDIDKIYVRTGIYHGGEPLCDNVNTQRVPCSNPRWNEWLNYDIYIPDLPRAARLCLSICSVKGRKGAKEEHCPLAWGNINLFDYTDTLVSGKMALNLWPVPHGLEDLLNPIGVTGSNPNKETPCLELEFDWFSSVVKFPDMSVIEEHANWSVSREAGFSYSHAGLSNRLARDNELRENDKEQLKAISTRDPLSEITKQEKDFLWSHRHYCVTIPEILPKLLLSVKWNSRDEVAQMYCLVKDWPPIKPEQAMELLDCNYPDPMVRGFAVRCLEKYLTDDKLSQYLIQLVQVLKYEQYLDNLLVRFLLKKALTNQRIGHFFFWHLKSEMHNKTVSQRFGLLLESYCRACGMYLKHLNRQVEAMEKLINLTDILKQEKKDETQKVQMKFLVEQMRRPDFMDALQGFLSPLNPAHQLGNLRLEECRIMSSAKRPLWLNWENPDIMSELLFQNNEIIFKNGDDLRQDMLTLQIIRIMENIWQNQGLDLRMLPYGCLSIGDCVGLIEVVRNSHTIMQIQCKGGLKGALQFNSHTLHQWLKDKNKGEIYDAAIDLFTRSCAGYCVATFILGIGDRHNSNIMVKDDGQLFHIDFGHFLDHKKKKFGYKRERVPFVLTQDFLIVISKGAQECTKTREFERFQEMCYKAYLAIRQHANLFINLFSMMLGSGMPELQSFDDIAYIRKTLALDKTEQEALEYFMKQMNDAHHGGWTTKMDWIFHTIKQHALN
UniProt P42336, whole entry: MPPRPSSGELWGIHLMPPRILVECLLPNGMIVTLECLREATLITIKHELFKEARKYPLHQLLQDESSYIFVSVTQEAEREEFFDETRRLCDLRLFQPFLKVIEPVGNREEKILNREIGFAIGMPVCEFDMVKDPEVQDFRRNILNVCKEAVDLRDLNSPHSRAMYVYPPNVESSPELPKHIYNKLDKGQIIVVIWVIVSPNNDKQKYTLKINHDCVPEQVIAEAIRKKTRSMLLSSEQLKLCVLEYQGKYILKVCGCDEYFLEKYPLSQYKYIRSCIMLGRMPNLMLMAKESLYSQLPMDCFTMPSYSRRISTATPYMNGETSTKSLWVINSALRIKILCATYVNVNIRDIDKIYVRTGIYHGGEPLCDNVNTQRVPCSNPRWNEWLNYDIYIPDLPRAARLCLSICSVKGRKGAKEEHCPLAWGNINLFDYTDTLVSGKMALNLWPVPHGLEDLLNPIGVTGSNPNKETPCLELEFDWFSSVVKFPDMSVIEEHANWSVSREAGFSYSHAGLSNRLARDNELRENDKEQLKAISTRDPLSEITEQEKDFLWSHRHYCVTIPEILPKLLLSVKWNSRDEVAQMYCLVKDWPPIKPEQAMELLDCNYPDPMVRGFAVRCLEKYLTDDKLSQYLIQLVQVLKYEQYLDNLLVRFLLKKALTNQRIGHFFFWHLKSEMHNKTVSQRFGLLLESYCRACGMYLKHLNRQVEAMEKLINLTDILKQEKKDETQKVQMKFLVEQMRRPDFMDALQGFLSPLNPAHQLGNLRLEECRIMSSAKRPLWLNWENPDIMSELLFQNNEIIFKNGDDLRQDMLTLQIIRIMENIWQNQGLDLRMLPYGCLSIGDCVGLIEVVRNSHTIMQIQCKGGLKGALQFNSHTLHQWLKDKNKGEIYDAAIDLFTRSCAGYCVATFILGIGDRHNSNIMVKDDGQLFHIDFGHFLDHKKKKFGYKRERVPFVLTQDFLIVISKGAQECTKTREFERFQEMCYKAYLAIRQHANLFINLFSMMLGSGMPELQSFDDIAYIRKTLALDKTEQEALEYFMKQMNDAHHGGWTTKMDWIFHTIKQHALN
UniProt P42336, whole entry Q546K: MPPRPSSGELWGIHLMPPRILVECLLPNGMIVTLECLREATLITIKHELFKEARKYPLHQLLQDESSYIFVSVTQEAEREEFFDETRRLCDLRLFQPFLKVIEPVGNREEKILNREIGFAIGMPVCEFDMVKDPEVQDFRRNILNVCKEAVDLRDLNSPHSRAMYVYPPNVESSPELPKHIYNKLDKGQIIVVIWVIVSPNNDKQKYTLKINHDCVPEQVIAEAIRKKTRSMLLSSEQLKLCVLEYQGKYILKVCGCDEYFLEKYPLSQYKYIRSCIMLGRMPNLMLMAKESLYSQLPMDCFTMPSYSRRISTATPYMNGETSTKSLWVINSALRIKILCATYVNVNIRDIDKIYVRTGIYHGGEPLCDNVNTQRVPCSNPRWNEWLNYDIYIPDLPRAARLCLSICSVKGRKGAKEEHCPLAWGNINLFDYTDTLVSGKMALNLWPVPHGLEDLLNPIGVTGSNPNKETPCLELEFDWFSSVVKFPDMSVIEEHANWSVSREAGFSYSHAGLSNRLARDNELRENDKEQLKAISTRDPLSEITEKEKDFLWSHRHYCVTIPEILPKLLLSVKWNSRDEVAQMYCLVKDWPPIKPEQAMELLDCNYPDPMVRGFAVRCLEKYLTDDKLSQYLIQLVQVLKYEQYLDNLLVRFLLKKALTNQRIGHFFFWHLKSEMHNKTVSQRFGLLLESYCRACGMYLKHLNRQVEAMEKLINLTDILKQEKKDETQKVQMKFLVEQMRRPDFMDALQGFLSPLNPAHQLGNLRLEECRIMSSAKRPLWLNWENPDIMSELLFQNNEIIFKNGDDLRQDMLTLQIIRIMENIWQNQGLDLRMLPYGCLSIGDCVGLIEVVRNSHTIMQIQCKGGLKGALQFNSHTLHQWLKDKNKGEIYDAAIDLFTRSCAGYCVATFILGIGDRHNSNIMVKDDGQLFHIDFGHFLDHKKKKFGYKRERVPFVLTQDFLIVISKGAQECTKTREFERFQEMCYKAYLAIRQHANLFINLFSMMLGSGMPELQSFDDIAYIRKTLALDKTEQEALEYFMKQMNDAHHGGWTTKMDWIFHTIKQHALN
UniProt P42336, whole entry M1043I: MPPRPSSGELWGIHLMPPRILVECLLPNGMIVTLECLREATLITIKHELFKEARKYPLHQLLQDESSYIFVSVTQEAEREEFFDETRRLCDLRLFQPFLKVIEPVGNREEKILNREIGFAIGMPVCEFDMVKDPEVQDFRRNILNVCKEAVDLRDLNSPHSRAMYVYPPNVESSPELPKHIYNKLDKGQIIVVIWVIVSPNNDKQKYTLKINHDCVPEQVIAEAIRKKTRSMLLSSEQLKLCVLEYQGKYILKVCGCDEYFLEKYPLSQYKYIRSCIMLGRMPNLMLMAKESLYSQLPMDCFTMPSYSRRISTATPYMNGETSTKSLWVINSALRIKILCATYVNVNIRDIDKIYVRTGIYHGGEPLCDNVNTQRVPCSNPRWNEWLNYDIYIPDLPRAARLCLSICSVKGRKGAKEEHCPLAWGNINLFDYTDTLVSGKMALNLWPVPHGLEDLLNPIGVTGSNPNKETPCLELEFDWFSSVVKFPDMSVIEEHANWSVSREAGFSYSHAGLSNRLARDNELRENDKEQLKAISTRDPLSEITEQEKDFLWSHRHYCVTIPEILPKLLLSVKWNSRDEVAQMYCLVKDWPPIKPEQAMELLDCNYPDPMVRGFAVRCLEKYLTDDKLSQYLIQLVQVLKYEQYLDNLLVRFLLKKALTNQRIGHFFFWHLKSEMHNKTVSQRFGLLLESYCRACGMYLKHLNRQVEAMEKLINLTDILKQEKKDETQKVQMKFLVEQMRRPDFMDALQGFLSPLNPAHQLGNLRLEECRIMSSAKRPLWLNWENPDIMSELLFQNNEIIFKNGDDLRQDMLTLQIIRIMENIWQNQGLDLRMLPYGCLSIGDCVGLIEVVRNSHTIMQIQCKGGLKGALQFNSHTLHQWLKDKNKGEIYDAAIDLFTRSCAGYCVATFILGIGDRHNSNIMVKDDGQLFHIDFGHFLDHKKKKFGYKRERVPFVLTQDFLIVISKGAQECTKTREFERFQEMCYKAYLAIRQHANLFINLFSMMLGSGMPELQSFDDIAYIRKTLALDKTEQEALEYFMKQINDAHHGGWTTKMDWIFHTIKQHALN

What was measured:
[1] = molecular target: Phosphatidylinositol 4,5-bisphosphate 3-kinase catalytic subunit alpha isoform (Homo sapiens, UniProt P42336, E542K)
[2] = molecular target: Mitogen-activated protein kinase 12 (Homo sapiens, UniProt P53778)
[3] = molecular target: Dual specificity tyrosine-phosphorylation-regulated kinase 1B (Homo sapiens, UniProt Q9Y463)
[4] = molecular target: MAP kinase-interacting serine/threonine-protein kinase 1 (Homo sapiens, UniProt Q9BUB5)
[5] = molecular target: Phosphatidylinositol 4,5-bisphosphate 3-kinase catalytic subunit alpha isoform (Homo sapiens, UniProt P42336, E545A)
[6] = molecular target: Serine/threonine-protein kinase 38-like (Homo sapiens, UniProt Q9Y2H1)
[7] = molecular target: Tyrosine-protein kinase receptor UFO (Homo sapiens, UniProt P30530)
[8] = molecular target: Receptor-interacting serine/threonine-protein kinase 1 (Homo sapiens, UniProt Q13546)
[9] = molecular target: Dual specificity protein kinase TTK (Homo sapiens, UniProt P33981)
[10] = molecular target: T1, Ribosomal protein S6 kinase alpha-5 (Homo sapiens, UniProt O75582)
[11] = molecular target: Inhibitor of nuclear factor kappa-B kinase subunit alpha (Homo sapiens, UniProt O15111)
Ephrin type-B receptor 2 = Ephrin type-B receptor 2 (Homo sapiens, UniProt P29323)
[12] = molecular target: Calcium/calmodulin-dependent protein kinase type II subunit alpha (Homo sapiens, UniProt Q9UQM7)
[13] = molecular target: Serine/threonine-protein kinase ULK3 (Homo sapiens, UniProt Q6PHR2)
[14] = molecular target: NUAK family SNF1-like kinase 1 (Homo sapiens, UniProt O60285)
[15] = molecular target: NUAK family SNF1-like kinase 2 (Homo sapiens, UniProt Q9H093)
[16] = molecular target: Phosphatidylinositol 4,5-bisphosphate 3-kinase catalytic subunit alpha isoform (Homo sapiens, UniProt P42336, E545K)
[17] = molecular target: Epithelial discoidin domain-containing receptor 1 (Homo sapiens, UniProt Q08345)
[18] = molecular target: Phosphatidylinositol 4,5-bisphosphate 3-kinase catalytic subunit alpha isoform (Homo sapiens, UniProt P42336)
Ephrin type-A receptor 3 = Ephrin type-A receptor 3 (Homo sapiens, UniProt P29320)
[19] = molecular target: Cyclin-dependent kinase 11A (Homo sapiens, UniProt Q9UQ88)
[20] = molecular target: Phosphatidylinositol 4,5-bisphosphate 3-kinase catalytic subunit alpha isoform (Homo sapiens, UniProt P42336, Q546K)
[21] = molecular target: Receptor-type tyrosine-protein kinase FLT3 (Homo sapiens, UniProt P36888, K663Q)
[22] = molecular target: Serine/threonine-protein kinase PAK 2 (Homo sapiens, UniProt Q13177)
[23] = molecular target: Tyrosine-protein kinase Mer (Homo sapiens, UniProt Q12866)
[24] = molecular target: Insulin-like growth factor 1 receptor (Homo sapiens, UniProt P08069)
[25] = molecular target: Interleukin-1 receptor-associated kinase 3 (Homo sapiens, UniProt Q9Y616)
[26] = molecular target: Tyrosine-protein kinase JAK3 (Homo sapiens, UniProt P52333)
[27] = molecular target: Phosphatidylinositol 4,5-bisphosphate 3-kinase catalytic subunit alpha isoform (Homo sapiens, UniProt P42336, M1043I)
[28] = molecular target: Phosphatidylinositol 4,5-bisphosphate 3-kinase catalytic subunit alpha isoform (Homo sapiens, UniProt P42336, H1047L)
[29] = molecular target: MAP kinase-activated protein kinase 5 (Homo sapiens, UniProt Q8IW41)
[30] = molecular target: High affinity nerve growth factor receptor (Homo sapiens, UniProt P04629)
[31] = molecular target: Membrane-associated tyrosine- and threonine-specific cdc2-inhibitory kinase (Homo sapiens, UniProt Q99640)
[32] = molecular target: Protein-tyrosine kinase 2-beta (Homo sapiens, UniProt Q14289)
[33] = molecular target: Receptor-type tyrosine-protein kinase FLT3 (Homo sapiens, UniProt P36888, N841I)
[34] = molecular target: Serine/threonine-protein kinase TAO3 (Homo sapiens, UniProt Q9H2K8)
[35] = molecular target: Serine/threonine-protein kinase NIM1 (Homo sapiens, UniProt Q8IY84)
[36] = molecular target: Serine/threonine-protein kinase PAK 5 (Homo sapiens, UniProt Q9P286)
[37] = molecular target: Tyrosine-protein kinase CSK (Homo sapiens, UniProt P41240)
[38] = molecular target: Serine/threonine-protein kinase RIO2 (Homo sapiens, UniProt Q9BVS4)
[39] = molecular target: Calcium/calmodulin-dependent protein kinase type II subunit beta (Homo sapiens, UniProt Q13554)
[40] = molecular target: Cyclin-dependent kinase-like 5 (Homo sapiens, UniProt O76039)
[41] = molecular target: ALK tyrosine kinase receptor (Homo sapiens, UniProt Q9UM73)
[42] = molecular target: Serine/threonine-protein kinase MRCK alpha (Homo sapiens, UniProt Q5VT25)
[43] = molecular target: Cyclin-dependent kinase 11B (Homo sapiens, UniProt P21127)
[44] = molecular target: Serine/threonine-protein kinase tousled-like 2 (Homo sapiens, UniProt Q86UE8)
[45] = molecular target: Tyrosine-protein kinase Srms (Homo sapiens, UniProt Q9H3Y6)
[46] = molecular target: Serine/threonine-protein kinase 25 (Homo sapiens, UniProt O00506)
[47] = molecular target: Activin receptor type-1-like (Homo sapiens, UniProt P37023)
[48] = molecular target: Tyrosine-protein kinase Blk (Homo sapiens, UniProt P51451)
[49] = molecular target: Receptor-type tyrosine-protein kinase FLT3 (Homo sapiens, UniProt P36888, D835Y)
[50] = molecular target: T2, Ribosomal protein S6 kinase alpha-6 (Homo sapiens, UniProt Q9UK32)
[51] = molecular target: Citron Rho-interacting kinase (Homo sapiens, UniProt O14578)
[52] = molecular target: Dual specificity testis-specific protein kinase 1 (Homo sapiens, UniProt Q15569)
[53] = molecular target: Serine/threonine-protein kinase MAK (Homo sapiens, UniProt P20794)
[54] = molecular target: Serine/threonine-protein kinase PLK3 (Homo sapiens, UniProt Q9H4B4)
[55] = molecular target: STE20/SPS1-related proline-alanine-rich protein kinase (Homo sapiens, UniProt Q9UEW8)
[56] = molecular target: Phosphatidylinositol 4,5-bisphosphate 3-kinase catalytic subunit alpha isoform (Homo sapiens, UniProt P42336, H1047Y)
[57] = molecular target: Myosin light chain kinase 2, skeletal/cardiac muscle (Homo sapiens, UniProt Q9H1R3)
[58] = molecular target: cAMP-dependent protein kinase catalytic subunit PRKX (Homo sapiens, UniProt P51817)
[59] = molecular target: Leukocyte tyrosine kinase receptor (Homo sapiens, UniProt P29376)
[60] = molecular target: Dual specificity protein kinase CLK4 (Homo sapiens, UniProt Q9HAZ1)
[61] = molecular target: Receptor-type tyrosine-protein kinase FLT3 (Homo sapiens, UniProt P36888)
[62] = molecular target: Cyclin-dependent kinase 2 (Homo sapiens, UniProt P24941)
Activin receptor type-1B = Activin receptor type-1B (Homo sapiens, UniProt P36896)
Ephrin type-A receptor 2 = Ephrin type-A receptor 2 (Homo sapiens, UniProt P29317)
[63] = molecular target: Phosphatidylinositol 3-kinase C2 domain-containing subunit gamma (Homo sapiens, UniProt O75747)
[64] = molecular target: Serine/threonine-protein kinase 10 (Homo sapiens, UniProt O94804)
[65] = molecular target: Homeodomain-interacting protein kinase 3 (Homo sapiens, UniProt Q9H422)
[66] = molecular target: T2, Ribosomal protein S6 kinase alpha-6; remark: listed apart in the source
Ephrin type-B receptor 4 = Ephrin type-B receptor 4 (Homo sapiens, UniProt P54760)
[67] = molecular target: Receptor-type tyrosine-protein kinase FLT3 (Homo sapiens, UniProt P36888, D835H)
[68] = molecular target: Receptor-type tyrosine-protein kinase FLT3 (Homo sapiens, UniProt P36888, ITD)
[69] = molecular target: T1, Ribosomal protein S6 kinase alpha-5; remark: listed apart in the source
[70] = molecular target: Cyclin-dependent kinase 7 (Homo sapiens, UniProt P50613)
[71] = molecular target: Vascular endothelial growth factor receptor 2 (Homo sapiens, UniProt P35968)
Myosin-IIIa = Myosin-IIIa (Homo sapiens, UniProt Q8NEV4)
[72] = molecular target: Serine/threonine-protein kinase pim-1 (Homo sapiens, UniProt P11309)
[73] = molecular target: Phosphatidylinositol 4,5-bisphosphate 3-kinase catalytic subunit alpha isoform (Homo sapiens, UniProt P42336, C420R)

Kd [1]: > 10 µM
Kd [2]: > 10 µM
Kd [3]: > 10 µM
Kd [4]: > 10 µM
Kd [5]: > 10 µM
Kd [6]: > 10 µM
Kd [7]: > 10 µM
Kd [8]: > 10 µM
Kd [9]: > 10 µM
Kd [10]: > 10 µM
Kd [11]: > 10 µM
Kd (Ephrin type-B receptor 2): > 10 µM
Kd [12]: 0.69 µM
Kd [13]: > 10 µM
Kd [14]: 0.11 µM
Kd [15]: 0.44 µM
Kd [16]: > 10 µM
Kd [17]: > 10 µM
Kd [18]: > 10 µM
Kd (Ephrin type-A receptor 3): > 10 µM
Kd [19]: > 10 µM
Kd [20]: > 10 µM
Kd [21]: 0.019 µM
Kd [22]: > 10 µM
Kd [23]: > 10 µM
Kd [24]: > 10 µM
Kd [25]: > 10 µM
Kd [26]: 0.037 µM
Kd [27]: > 10 µM
Kd [28]: > 10 µM
Kd [29]: > 10 µM
Kd [30]: > 10 µM
Kd [31]: > 10 µM
Kd [32]: 1.5 µM
Kd [33]: 0.023 µM
Kd [34]: > 10 µM
Kd [35]: > 10 µM
Kd [36]: > 10 µM
Kd [37]: > 10 µM
Kd [38]: > 10 µM
Kd [39]: > 10 µM
Kd [40]: > 10 µM
Kd [41]: > 10 µM
Kd [42]: > 10 µM
Kd [43]: > 10 µM
Kd [44]: > 10 µM
Kd [45]: > 10 µM
Kd [46]: > 10 µM
Kd [47]: > 10 µM
Kd [48]: 0.6 µM
Kd [49]: 0.0079 µM
Kd [50]: > 10 µM
Kd [51]: > 10 µM
Kd [52]: > 10 µM
Kd [53]: > 10 µM
Kd [54]: > 10 µM
Kd [55]: > 10 µM
Kd [56]: > 10 µM
Kd [57]: > 10 µM
Kd [58]: > 10 µM
Kd [59]: > 10 µM
Kd [60]: > 10 µM
IC50 [61]: 0.35 µM
Kd [62]: > 10 µM
Kd (Activin receptor type-1B): > 10 µM
Kd (Ephrin type-A receptor 2): > 10 µM
Kd [63]: > 10 µM
Kd [64]: > 10 µM
Kd [65]: > 10 µM
Kd [66]: > 10 µM
Kd (Ephrin type-B receptor 4): > 10 µM
Kd [67]: 0.0065 µM
IC50 [68]: 0.16 µM
Kd [69]: > 10 µM
Kd [70]: > 10 µM
Kd [71]: > 10 µM
Kd (Myosin-IIIa): > 10 µM
Kd [72]: 1.8 µM
Kd [73]: > 10 µM
Compound: CO[C@@H]1[C@H](N(C)C(=O)c2ccccc2)C[C@H]2O[C@]1(C)n1c3ccccc3c3c4c(c5c6ccccc6n2c5c31)C(=O)N[C@H]4O [CGP-52421]
